Experiment [1] has as its target rat CYP3A2, Cyp3a2 (gene 266682) (UniProt P05183). Briefly: NVS_ADME_rCYP3A2: NovaScreen (NVS) CYP450-related Enzyme Activity (ADME) Assay for rat CYP3A2 (AID 2283128). In short, it runs like this:
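Fluorescence readout of extracted rat CYP3A2 activity 0.5 h post-dose, acetonitrile as negative control. Single-point testing in duplicate at 10 uM, followed by concentration series to a 20 uM maximum for actives.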

Chains of the proteins cited; added tags and fusions are not shown. Lines headed by an entry give the natural chain unless they say otherwise; changes in a name come on top.
UniProt P05183: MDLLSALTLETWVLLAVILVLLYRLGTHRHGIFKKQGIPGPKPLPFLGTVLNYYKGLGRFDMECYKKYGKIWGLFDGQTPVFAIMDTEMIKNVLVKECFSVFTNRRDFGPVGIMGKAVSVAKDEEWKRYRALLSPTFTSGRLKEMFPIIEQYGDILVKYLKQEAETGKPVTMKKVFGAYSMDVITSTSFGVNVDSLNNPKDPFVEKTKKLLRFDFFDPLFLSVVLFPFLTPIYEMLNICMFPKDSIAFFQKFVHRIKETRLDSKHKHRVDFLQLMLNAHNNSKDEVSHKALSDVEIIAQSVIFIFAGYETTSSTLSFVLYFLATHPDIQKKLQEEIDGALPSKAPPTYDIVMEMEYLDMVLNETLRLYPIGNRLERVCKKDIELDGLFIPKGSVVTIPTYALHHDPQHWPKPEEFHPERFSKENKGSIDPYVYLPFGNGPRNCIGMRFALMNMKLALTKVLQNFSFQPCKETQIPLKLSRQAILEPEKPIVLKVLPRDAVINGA
UniProt P56817: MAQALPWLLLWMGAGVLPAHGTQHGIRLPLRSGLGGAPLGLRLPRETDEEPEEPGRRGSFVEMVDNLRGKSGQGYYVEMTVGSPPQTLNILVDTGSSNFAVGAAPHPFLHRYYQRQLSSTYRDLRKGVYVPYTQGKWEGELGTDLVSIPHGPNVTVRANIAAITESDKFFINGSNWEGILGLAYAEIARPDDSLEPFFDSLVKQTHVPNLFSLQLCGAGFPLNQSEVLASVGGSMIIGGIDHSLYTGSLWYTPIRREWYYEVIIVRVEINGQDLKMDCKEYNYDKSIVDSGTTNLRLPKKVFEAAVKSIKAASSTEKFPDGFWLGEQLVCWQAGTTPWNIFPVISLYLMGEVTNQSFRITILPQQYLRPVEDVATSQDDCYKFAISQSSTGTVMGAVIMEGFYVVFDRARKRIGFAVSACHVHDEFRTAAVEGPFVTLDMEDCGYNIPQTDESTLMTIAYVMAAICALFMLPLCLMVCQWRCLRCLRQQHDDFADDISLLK
UniProt P29317, whole entry, looked up: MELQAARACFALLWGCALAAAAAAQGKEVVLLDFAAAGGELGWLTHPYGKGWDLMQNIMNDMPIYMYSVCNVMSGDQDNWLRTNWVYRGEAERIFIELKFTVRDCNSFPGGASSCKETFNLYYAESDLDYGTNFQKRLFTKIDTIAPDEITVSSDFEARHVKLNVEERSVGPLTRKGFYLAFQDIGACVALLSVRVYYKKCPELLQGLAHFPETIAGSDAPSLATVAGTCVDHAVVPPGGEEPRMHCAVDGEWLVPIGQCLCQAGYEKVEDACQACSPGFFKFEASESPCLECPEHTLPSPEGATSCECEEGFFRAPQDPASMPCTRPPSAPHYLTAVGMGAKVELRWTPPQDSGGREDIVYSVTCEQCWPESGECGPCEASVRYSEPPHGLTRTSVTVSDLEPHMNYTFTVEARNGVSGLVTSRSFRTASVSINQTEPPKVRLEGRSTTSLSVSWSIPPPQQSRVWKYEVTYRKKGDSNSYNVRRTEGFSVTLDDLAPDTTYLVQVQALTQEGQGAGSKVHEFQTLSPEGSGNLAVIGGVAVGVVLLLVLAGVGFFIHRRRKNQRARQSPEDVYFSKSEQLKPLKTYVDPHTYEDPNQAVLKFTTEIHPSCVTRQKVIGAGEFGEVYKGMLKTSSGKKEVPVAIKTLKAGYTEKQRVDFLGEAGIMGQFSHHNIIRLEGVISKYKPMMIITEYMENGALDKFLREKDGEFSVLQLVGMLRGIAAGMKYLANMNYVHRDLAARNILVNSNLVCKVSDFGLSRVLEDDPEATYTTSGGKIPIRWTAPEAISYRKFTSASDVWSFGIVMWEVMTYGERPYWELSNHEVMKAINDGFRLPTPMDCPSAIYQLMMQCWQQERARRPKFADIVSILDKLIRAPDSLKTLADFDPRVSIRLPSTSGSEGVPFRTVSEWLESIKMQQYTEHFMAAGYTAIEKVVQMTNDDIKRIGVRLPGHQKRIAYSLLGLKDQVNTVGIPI
UniProt P21709: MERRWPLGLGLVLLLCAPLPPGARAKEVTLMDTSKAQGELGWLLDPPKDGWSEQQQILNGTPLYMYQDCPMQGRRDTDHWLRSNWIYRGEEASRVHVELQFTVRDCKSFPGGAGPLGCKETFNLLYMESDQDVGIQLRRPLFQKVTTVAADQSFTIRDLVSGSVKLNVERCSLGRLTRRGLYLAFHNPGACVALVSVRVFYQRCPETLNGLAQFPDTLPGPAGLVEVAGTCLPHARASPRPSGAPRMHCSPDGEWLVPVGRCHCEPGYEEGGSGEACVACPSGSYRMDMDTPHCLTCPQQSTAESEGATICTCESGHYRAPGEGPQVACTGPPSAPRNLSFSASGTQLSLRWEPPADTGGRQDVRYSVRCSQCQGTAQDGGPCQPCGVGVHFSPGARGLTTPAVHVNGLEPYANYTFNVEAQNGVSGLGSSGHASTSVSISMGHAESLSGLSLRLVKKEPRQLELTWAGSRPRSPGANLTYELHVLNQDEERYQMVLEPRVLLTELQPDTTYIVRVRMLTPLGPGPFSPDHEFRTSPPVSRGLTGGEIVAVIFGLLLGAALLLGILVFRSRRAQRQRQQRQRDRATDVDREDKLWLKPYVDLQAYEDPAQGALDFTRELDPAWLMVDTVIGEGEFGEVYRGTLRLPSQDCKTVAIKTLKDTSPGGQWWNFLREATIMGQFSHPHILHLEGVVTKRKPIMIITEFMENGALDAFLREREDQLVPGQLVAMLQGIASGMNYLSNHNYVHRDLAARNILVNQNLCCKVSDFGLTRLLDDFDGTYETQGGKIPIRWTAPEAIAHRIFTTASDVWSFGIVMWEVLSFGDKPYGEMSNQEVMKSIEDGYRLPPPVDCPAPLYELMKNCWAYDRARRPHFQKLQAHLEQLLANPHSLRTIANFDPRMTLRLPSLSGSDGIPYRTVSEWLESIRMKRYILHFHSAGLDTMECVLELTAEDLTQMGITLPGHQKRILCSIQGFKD
UniProt P28482, whole entry, looked up: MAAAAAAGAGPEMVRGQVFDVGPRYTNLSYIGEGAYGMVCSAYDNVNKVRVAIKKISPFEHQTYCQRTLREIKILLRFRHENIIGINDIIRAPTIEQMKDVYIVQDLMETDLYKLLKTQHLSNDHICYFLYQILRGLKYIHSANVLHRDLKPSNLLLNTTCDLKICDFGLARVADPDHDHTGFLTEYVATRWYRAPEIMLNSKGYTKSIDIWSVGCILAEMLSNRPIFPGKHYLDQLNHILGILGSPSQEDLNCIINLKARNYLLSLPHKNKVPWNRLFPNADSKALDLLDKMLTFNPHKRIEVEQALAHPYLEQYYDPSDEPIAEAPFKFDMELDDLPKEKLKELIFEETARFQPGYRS
UniProt P51452: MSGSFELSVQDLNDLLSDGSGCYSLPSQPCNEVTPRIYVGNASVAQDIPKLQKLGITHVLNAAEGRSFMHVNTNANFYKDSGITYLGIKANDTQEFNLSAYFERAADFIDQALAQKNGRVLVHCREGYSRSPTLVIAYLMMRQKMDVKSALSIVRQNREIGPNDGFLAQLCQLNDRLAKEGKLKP
UniProt P06276, whole entry, looked up: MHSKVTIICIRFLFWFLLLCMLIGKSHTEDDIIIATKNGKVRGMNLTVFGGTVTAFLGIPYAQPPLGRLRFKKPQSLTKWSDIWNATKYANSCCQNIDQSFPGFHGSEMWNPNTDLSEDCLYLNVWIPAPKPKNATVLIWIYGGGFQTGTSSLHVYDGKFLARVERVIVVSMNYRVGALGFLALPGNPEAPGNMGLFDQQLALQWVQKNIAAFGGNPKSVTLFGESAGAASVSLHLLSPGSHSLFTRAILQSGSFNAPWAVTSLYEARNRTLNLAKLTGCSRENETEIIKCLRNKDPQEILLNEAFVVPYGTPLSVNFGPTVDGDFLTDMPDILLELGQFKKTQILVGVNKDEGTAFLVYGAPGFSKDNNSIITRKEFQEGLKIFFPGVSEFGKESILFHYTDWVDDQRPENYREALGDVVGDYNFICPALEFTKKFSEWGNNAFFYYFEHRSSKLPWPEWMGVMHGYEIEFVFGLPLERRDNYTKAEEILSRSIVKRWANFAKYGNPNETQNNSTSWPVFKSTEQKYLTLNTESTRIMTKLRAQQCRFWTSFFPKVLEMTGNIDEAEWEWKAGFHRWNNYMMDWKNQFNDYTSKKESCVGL
UniProt Q14790: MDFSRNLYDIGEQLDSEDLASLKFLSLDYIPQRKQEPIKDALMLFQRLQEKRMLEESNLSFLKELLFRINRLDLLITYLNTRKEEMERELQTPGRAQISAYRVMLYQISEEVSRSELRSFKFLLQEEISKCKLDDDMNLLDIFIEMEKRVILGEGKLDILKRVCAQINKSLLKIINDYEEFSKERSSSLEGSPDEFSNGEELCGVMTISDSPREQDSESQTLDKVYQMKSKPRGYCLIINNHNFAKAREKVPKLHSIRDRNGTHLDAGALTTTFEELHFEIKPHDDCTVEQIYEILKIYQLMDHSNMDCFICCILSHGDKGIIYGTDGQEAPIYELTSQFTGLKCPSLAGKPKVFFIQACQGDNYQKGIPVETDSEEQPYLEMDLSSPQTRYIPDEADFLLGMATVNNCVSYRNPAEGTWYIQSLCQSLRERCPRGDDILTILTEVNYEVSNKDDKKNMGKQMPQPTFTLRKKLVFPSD
UniProt P48730: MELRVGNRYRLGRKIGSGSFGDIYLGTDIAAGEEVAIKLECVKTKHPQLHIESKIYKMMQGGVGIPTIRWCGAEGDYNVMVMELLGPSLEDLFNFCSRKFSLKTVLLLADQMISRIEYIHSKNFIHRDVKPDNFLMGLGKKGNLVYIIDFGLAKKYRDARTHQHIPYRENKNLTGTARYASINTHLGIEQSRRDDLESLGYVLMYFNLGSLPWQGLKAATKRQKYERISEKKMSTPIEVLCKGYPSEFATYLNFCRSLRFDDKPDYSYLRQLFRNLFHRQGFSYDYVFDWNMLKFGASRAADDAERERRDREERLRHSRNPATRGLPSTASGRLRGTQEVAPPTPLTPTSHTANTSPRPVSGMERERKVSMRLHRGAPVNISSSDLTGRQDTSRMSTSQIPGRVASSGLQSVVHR
UniProt P49841: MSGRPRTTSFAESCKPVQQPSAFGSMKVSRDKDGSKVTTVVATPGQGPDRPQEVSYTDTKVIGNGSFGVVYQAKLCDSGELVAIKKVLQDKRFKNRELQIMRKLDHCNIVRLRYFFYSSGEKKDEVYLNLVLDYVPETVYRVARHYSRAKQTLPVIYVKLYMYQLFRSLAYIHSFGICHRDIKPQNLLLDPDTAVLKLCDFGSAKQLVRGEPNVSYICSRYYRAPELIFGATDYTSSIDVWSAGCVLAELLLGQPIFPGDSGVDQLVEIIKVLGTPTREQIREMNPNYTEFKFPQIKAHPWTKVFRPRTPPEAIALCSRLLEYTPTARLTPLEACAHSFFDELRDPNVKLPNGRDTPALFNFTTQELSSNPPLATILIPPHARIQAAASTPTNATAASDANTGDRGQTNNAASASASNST
UniProt O15111: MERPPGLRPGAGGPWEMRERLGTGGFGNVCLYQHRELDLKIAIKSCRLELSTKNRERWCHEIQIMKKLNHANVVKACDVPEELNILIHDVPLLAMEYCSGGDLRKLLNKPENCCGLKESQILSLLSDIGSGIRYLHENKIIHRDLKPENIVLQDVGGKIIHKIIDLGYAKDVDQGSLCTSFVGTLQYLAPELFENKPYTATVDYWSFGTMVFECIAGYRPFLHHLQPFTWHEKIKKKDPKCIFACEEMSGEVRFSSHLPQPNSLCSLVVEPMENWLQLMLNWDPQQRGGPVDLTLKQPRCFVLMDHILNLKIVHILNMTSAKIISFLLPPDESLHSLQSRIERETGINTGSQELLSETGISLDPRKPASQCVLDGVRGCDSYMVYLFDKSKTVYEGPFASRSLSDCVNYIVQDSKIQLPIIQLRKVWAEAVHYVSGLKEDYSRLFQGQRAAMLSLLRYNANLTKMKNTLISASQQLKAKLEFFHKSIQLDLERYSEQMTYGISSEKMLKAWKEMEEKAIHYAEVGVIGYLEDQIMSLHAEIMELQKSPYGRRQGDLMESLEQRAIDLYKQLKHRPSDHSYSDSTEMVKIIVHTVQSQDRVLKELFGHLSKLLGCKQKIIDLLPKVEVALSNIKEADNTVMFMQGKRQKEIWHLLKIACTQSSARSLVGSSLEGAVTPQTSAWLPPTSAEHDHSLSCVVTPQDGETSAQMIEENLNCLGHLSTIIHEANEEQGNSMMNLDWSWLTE
UniProt P09237: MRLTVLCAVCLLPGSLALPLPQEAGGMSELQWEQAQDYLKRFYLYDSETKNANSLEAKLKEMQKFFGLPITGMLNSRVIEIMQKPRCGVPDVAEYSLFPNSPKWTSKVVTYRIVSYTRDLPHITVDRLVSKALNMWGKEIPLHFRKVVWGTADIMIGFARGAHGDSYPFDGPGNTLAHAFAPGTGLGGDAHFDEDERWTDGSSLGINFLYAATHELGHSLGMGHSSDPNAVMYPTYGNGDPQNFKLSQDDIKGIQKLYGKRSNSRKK

Experiment [2] addresses human Beta-secretase (BACE), BACE1 (gene 23621) (UniProt P56817). Briefly: NVS_ENZ_hBACE: NovaScreen (NVS) Enzymatic Assay for human Beta-secretase (BACE) (AID 2283140).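 Also: hits are inhibitors that reduce fluorescent substrate signal versus DMSO.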 Put shortly: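 SF9-expressed enzyme, cell-free; fluorescent substrate readout after 1 h. Screened at 25 uM single concentration, duplicate; hits retested in concentration series. Activity relative to DMSO baseline, loss-of-signal.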

The target in experiment [3] is human Ephrin type-A Receptor 2 (EphA2), EPHA2 (gene 1969) (UniProt P29317). Briefly: NVS_ENZ_hEphA2: NovaScreen (NVS) Enzymatic Assay for human Ephrin type-A Receptor 2 (EphA2) (AID 2283155). In short, it runs like this: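 Enzyme activity of recombinant EphA2 read by fluorescence after mobility-shift separation, 1 h after dosing. Chemicals first tested at 25 uM (duplicate); those passing threshold run as concentration series, top 50 uM, single replicate, relative to DMSO.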

Experiment [4] concerns the target human Ephrin type-A Receptor 1 (EphA1), EPHA1 (gene 2041) (UniProt P21709). Briefly: NVS_ENZ_hEphA1: NovaScreen (NVS) Enzymatic Assay for human Ephrin type-A Receptor 1 (EphA1) (AID 2283158).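 Also: activity is signal loss versus DMSO meaning EphA1 kinase inhibition.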 Put shortly: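 Chemicals first tested in duplicate at 25 uM against recombinant EphA1 with a fluorescent substrate; those passing threshold went to singleton dose-response topping at 50 uM. Activity read 1 h later as mobility-shift fluorescence, loss of signal relative to DMSO.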

Experiment [5] addresses human Fibroblast Growth Factor Receptor 1 (FGFR1), FGFR1 (gene 2260) (UniProt P11362). Briefly: NVS_ENZ_hFGFR1: NovaScreen (NVS) Enzymatic Assay for human Fibroblast Growth Factor Receptor 1 (FGFR1) (AID 2283159). Put shortly: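 Cell-free recombinant kinase with fluorescent substrate, product separated by electrophoretic mobility shift; read 1 hour after dosing, loss of signal relative to DMSO. Initial screen in duplicate at 25 uM, actives followed in concentration series.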

Experiment [6] addresses human Mitogen-Activated Protein Kinase 1 (MAPK 1), MAPK1 (gene 5594) (UniProt P28482). Briefly: NVS_ENZ_hMAPK1: NovaScreen (NVS) Enzymatic Assay for human Mitogen-Activated Protein Kinase 1 (MAPK 1) (AID 2283175). In short, it runs like this:
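Cell-free recombinant human MAPK1 enzymatic assay, fluorescence/electrophoretic mobility shift read at 1 h; loss of signal vs DMSO. Primary screen in duplicate at 25 uM; actives (e.g. ≥30% inhibition) run as concentration-response up to 50 uM.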

Experiment [7] deals with human Aurora Kinase A - serine/threonine-protein Kinase 6 (AurA), AURKA (gene 6790) (UniProt O14965). The experiment is described as follows: NVS_ENZ_hAurA: NovaScreen (NVS) Enzymatic Assay for human Aurora Kinase A - serine/threonine-protein Kinase 6 (AurA) (AID 2283142). In short, it runs like this:
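Recombinant human AurA activity read by fluorescence after mobility-shift separation of product from substrate; 1 hour incubation. Chemicals first run in duplicate at 25 uM, then concentration series to 50 uM if over threshold; fitted relative to DMSO.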

Experiment [8] has as its target human Dual Specificity Protein Phosphatase 3 (DUSP3), DUSP3 (gene 1845) (UniProt P51452). Briefly: NVS_ENZ_hDUSP3: NovaScreen (NVS) Enzymatic Assay for human Dual Specificity Protein Phosphatase 3 (DUSP3) (AID 2283152).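 Also: phosphatase activity of recombinant human DUSP3 on a fluorogenic substrate without cells.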 In short, it runs like this:
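Cell-free fluorescence-intensity enzyme activity assay with recombinant protein and substrate; loss of signal fitted relative to DMSO baseline. Primary screen in duplicate at 25 uM, actives then run in concentration series; measured 0 h after dosing.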

The target of experiment [9] is human Elastase, ELANE (gene 1991) (UniProt P08246). The experiment is described as follows: NVS_ENZ_hElastase: NovaScreen (NVS) Enzymatic Assay for human Elastase (AID 2283153). In short, it runs like this:
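Concentration-response to 50 uM max, run singly for chemicals passing a threshold (e.g., 30% inhibition) in a duplicate 25 uM single-point screen. Neutrophil-derived human elastase, absorbance read-out of enzyme activity at 1.5 h; DMSO baseline.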

Experiment [10] addresses human Esterase Plasma (ES), BCHE (gene 590) (UniProt P06276). Briefly: NVS_ENZ_hES: NovaScreen (NVS) Enzymatic Assay for human Esterase Plasma (ES) (AID 2283157). In short, it runs like this: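 Human plasma-derived enzyme, cell-free, colorimetric readout at 0.25 h. Primary screen 25 uM in duplicate; hits (e.g. ≥30% inhibition) rerun singleton up to 50 uM. DMSO = negative control/baseline.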

Experiment [11] deals with human Mitogen- and Stress-activated Protein Kinase-1 (Msk1), RPS6KA5 (gene 9252) (UniProt O75582). Briefly: NVS_ENZ_hMsk1: NovaScreen (NVS) Enzymatic Assay for human Mitogen- and Stress-activated Protein Kinase-1 (Msk1) (AID 2283187). Put shortly:
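Chemicals first run in duplicate at 25 uM, with actives followed up in singleton concentration series to 50 uM maximum. Enzyme activity came from substrate/product mobility-shift separation with fluorescence detection after 1 h incubation of the recombinant protein.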

Experiment [12] addresses human Caspase 10 (CASP10), CASP10 (gene 843) (UniProt Q92851). The experiment is described as follows: NVS_ENZ_hCASP10: NovaScreen (NVS) Enzymatic Assay for human Caspase 10 (CASP10) (AID 2283133). Put shortly: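 Fluorescence-intensity enzyme read-out of E. coli-expressed CASP10 activity, 1 h after compound. Single-point duplicates at 25 uM preceded concentration-response testing (top 50 uM) of hits; inhibition expressed as signal loss versus DMSO.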

Experiment [13] concerns the target human Caspase 8 (CASP8), CASP8 (gene 841) (UniProt Q14790). The experiment is described as follows: NVS_ENZ_hCASP8: NovaScreen (NVS) Enzymatic Assay for human Caspase 8 (CASP8) (AID 2283146). Put shortly:
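The primary screen tested compounds in duplicate at a single 25 uM concentration, with actives followed up in concentration series. Activity of recombinant (E. coli) protease was measured by fluorescence 1 h post-dose, as signal loss against DMSO.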

The target in experiment [14] is human Casein Kinase 1-delta (CK1D), CSNK1D (gene 1453) (UniProt P48730). Briefly: NVS_ENZ_hCK1D: NovaScreen (NVS) Enzymatic Assay for human Casein Kinase 1-delta (CK1D) (AID 2283148). Put shortly:
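Recombinant human CK1-delta, cell-free; fluorescent substrate with electrophoretic mobility-shift separation of product, read 1 h after dosing. Single 25 uM duplicate screen, then concentration-response up to 50 uM; loss of signal vs DMSO.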

The target in experiment [15] is human Colony Stimulating Factor 1 Receptor (CSF1R), CSF1R (gene 1436) (UniProt P07333). The experiment is described as follows: NVS_ENZ_hCSF1R: NovaScreen (NVS) Enzymatic Assay for human Colony Stimulating Factor 1 Receptor (CSF1R) (AID 2283150). In short, it runs like this:
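Compounds screened in duplicate at 25 uM, then concentration-response (top 50 uM) for those passing threshold such as 30% inhibition; recombinant CSF1R activity measured 1 h post-dosing via fluorescent substrate/product mobility-shift separation, loss of signal versus DMSO.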

Experiment [16] concerns the target human Epidermal Growth Factor Receptor (EGFR), EGFR (gene 1956) (UniProt P00533). Briefly: NVS_ENZ_hEGFR: NovaScreen (NVS) Enzymatic Assay for human Epidermal Growth Factor Receptor (EGFR) (AID 2283151). Put shortly:
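Cell-free kinase assay, fluorescence plus electrophoretic mobility shift separating substrate and product, read 1 hour after dosing; loss of signal vs DMSO. Duplicate screen at 25 uM, then concentration-response to 50 uM.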

The target of experiment [17] is human Ephrin type-B Receptor 2 (EphB2), EPHB2 (gene 2048) (UniProt P29323). The experiment is described as follows: NVS_ENZ_hEphB2: NovaScreen (NVS) Enzymatic Assay for human Ephrin type-B Receptor 2 (EphB2) (AID 2283156). Put shortly:
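Compounds were first tested in duplicate at 25 uM, with hits rerun singly in concentration series up to 50 uM. Enzyme activity on fluorescent substrate was read at 1 h by mobility-shift separation, scored as signal loss relative to DMSO.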

Experiment [18] deals with Glycogen synthase kinase-3 beta (Homo sapiens) (UniProt P49841). Briefly: NVS_ENZ_hGSK3b: NovaScreen (NVS) Enzymatic Assay for human Glycogen Synthase Kinase-3 beta (GSK3b) (AID 2283165). In short, it runs like this: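 Recombinant enzyme with specific fluorescent substrate, 1 h, product separated by electrophoretic mobility shift. Primary duplicate screen at 25 uM; actives (e.g. 30% inhibition) followed in singleton concentration-response to 50 uM. Signal loss fitted versus DMSO.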

In experiment [19] the target is human IkappaB Kinase alpha (IKKa), CHUK (gene 1147) (UniProt O15111). Briefly: NVS_ENZ_hIKKa: NovaScreen (NVS) Enzymatic Assay for human IkappaB Kinase alpha (IKKa) (AID 2283167). In short, it runs like this:
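Compounds first run in duplicate at 25 uM, those meeting threshold (e.g. 30% inhibition) retested to maximum 50 uM. Enzyme activity of recombinant IKKa measured by fluorescence with electrophoretic mobility shift separation, 1 hour post-dosing, DMSO baseline.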

Experiment [20] addresses human Matrix Metalloproteinase-7 (MMP7), MMP7 (gene 4316) (UniProt P09237). The experiment is described as follows: NVS_ENZ_hMMP7: NovaScreen (NVS) Enzymatic Assay for human Matrix Metalloproteinase-7 (MMP7) (AID 2283183). In short, it runs like this:
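Compounds first tested at 25 uM in duplicate, then at up to 50 uM in concentration series if active. Protease activity measured by fluorescence intensity 1 h after dosing, with fitting relative to DMSO.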

Where “and” joins values, the source holds several entries; their conditions need not be identical. Equal entries are not always repeated. The entries are a selection whose mix differs from that of the whole data set. Records with an inconclusive call do not appear. Calls of active or inactive are those of the source. The calls were made as follows: active = hit-call score of the fitted dose curve at least 0.9, where 1 is the maximum; inconclusive = response in the unintended direction; inactive = score below 0.9.

In the case of `CC(C)OP(=S)(OC(C)C)SCCNS(=O)(=O)c1ccccc1`, the AC50 in [1] was active: 218 nM and active: 182 nM and active: 198 nM; in [2], active: 8.47 µM and active: 10.3 µM and active: 11 µM. Moreover, the outcome in experiment [3], in experiment [4], in [5] and in experiment [6] was inactive.

Regarding `CN(C(=O)Cc1cccc2occc12)[C@H]1CC[C@@]2(CCCO2)C[C@@H]1N1CCCC1`, the call in experiment [7], in experiment [9] and in experiment [11] was inactive. The AC50 in [8] was active: 14.8 µM; in experiment [10] it was active: 21.9 µM.

As for `Cc1cc([N+](=O)[O-])cc([N+](=O)[O-])c1O`, the compound was classed as inactive in experiment [12], in experiment [7], in experiment [13], in experiment [14], in experiment [15] and in [16]. In addition, the compound was called inactive in experiment [17], in [4], in experiment [5], in [18], in [19] and in experiment [20]. Also, the compound was called inactive in experiment [11].
